The test relates to U-87 MG. The settings on record: Homo sapiens, time 16.0 hrs.

For `C[C@H]1OC(=O)N(c2nc(-c3cnc(N)nc3C(F)(F)F)cc(N3CCOCC3)n2)[C@H]1CO`, the 90% effect level (IC90) was put at 0.507 µM.
